# Experimental data taken from PubChem BioAssay AID652048 (National Center for Advancing Translational Sciences (NCATS), 2013).
# Amino acid sequences for entries named in this document (tags omitted).
# UniProt P35462, whole entry: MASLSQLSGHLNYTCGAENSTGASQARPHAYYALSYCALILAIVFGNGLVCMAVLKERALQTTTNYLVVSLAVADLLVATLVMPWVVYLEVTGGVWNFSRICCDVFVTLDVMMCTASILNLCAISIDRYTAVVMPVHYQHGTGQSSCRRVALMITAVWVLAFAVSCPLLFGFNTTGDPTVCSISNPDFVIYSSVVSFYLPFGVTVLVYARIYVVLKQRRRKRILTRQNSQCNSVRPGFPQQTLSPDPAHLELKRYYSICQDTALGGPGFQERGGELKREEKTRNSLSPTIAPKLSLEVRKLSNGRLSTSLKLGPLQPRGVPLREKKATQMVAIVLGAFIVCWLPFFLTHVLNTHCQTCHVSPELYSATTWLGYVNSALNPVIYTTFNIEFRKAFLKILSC
# This is a selection; strong and weak results do not stand in their true shares. Calls of active or inactive are those of the source. Rule as the data show it: active = max activation above about 30%; inactive = the rest.
# Biological target: D(3) dopamine receptor (Homo sapiens) (UniProt P35462)
# Test: qHTS of D3 Dopamine Receptor Agonist: qHTS; also: 0% is about no effect
# Details: D3R DiscoveRx beta-arrestin cells, luminescence, 90 min; active compounds read high
# Excerpt: D3 DARs represent a very important target for the treatment of several neuropsychiatric disorders. Indeed, one of the most promising therapeutic applications for the D3 DAR is in the area of addiction and related disorders. […] These findings have been observed with a number of addictive substances including cocaine, amphetamine, nicotine, and alcohol. […] Antagonism of the D3 DAR may also be therapeutic in the treatment of schizophrenia or psychosis. […] Since the D3 DAR is expressed in areas of the CNS associated with the control of mood and emotion, it has been hypothesized that selective antagonism of the D3 DAR may be effective in treating psychosis without inducing the motor side effects typically seen with D2 DAR antagonists.
# This part of the project aims to discover novel agonist.
# NIH Chemical Genomics Center [NCGC]
# NIH Molecular Libraries Probe Centers Network [MLPCN]
# Assay Submitter (PI): David Sibley, NINDS
# Freshly passaged cells are plated in 1536 well white, solid bottom plates at a density of 1500 cells/well in 3microl of complete media. After an overnight incubation at 37 degrees C in 5% CO2, cells are loaded with 23nl of test compound from the compound library (as well as dopamine controls) using a 1536 pintool and incubated at 37 degrees C for 90 minutes. Two microliters of DiscoveRx reagent is then added to all cells, and they are incubated for an additional 30 - 60 minutes at room temperature. Following incubation, luminescence is measured on a ViewLux CCD-based luminometer reader using a 20 sec exposure time.
row,Structure (SMILES),max activation
1,Cc1cc(C)cc(OP(C)(=O)Nc2ccc(C)cc2C)c1 (stereo not drawn),inactive: 4.56%
2,CCOC(=O)c1ccc(NP(C)(=O)Oc2cc(C)cc(C)c2)cc1 (stereo not drawn),inactive: -7.52%
3,CP(=O)(Nc1cccc(Br)c1)Oc1ccccc1 (stereo not drawn),inactive: -15.8%
4,Cc1cc(C)cc(OP(C)(=O)Nc2ccccn2)c1 (stereo not drawn),inactive: 12.2%
5,Cc1ccc(C)c(NP(C)(=O)Oc2ccccc2)c1 (stereo not drawn),inactive: 0.0048%
6,O=[N+]([O-])c1cc([N+](=O)[O-])c(-n2nnc3ccccc32)c([N+](=O)[O-])c1,inactive: 3.49%
7,CC(C)N(CCCl)C(C)C,inactive: -0.354%
8,CN(Cc1cccnc1)C(=O)COc1ccc(Cl)c(Cl)c1.O=[N+]([O-])c1cc([N+](=O)[O-])c(O)c([N+](=O)[O-])c1,inactive: 1.53%
9,O=[N+]([O-])c1cc([N+](=O)[O-])c(-c2cnn(-c3ccccc3)c2)c([N+](=O)[O-])c1,inactive: -6.45%
10,Cc1nc2ccc3ccccc3c2s1.O=[N+]([O-])c1cc([N+](=O)[O-])c(O)c([N+](=O)[O-])c1,inactive: -4.74%
11,O=[N+]([O-])c1cc([N+](=O)[O-])c(Nc2nnnn2CCO)c([N+](=O)[O-])c1,inactive: -3.84%
12,CC1=C2N=C(C=C3N=C(C(C)=C4[N-][C@@](C)([C@@H]5N=C1[C@](C)(CCC(=O)NC[C@@H](C)OP(=O)([O-])O[C@H]1[C@@H](O)[C@@H](n6cnc7cc(C)c(C)cc76)O[C@@H]1CO)[C@H]5CC(N)=O)[C@@](C)(CC(N)=O)[C@@H]4CCC(N)=O)[C@@](C)(CC(N)=O)[C@@H]3CCC(N)=O)C(C)(C)[C@@H]2CCC(N)=O.[C-]#N.[Co+3],inactive: -52.9%
13,CN1CCCCC1COC(=O)C1(O)c2ccccc2CCc2ccccc21 (stereo not drawn),inactive: -9.41%
14,COc1ccccc1OP(C)(=O)Nc1c(C)cccc1C (stereo not drawn),inactive: -6.27%
15,CP(=O)(Nc1ccc(SC(F)(F)F)cc1)Oc1ccccc1 (stereo not drawn),inactive: 3.96%
16,CCCOc1ccc(NP(C)(=O)Oc2ccc(Cl)cc2)cc1 (stereo not drawn),inactive: 1.4%
17,CP(=S)(Nn1cnnc1)Oc1ccccc1 (stereo not drawn),inactive: -3.55%
18,COc1ccccc1OP(C)(=O)Nc1ccccc1 (stereo not drawn),inactive: -0.605%
19,CP(=O)(Nc1ccccc1Br)Oc1ccccc1 (stereo not drawn),inactive: 9.41%
20,CP(=O)(Oc1ccccc1)OC(c1ccccc1)C(F)(F)F (stereo not drawn),inactive: 2.14%
21,CP(=O)(Nc1ccc(SC(F)(F)F)cc1)Oc1ccc(Cl)cc1 (stereo not drawn),inactive: -4.96%
22,Cc1cccc(C)c1OP(C)(=O)Nc1ccc(SC(F)(F)F)cc1 (stereo not drawn),inactive: 0.904%

row,Structure (SMILES),max activation
1,Cc1cc(C)cc(OP(C)(=O)Nc2ccc(SC(F)(F)F)cc2)c1 (stereo not drawn),inactive: 2.6%
2,CCc1ccc(OP(C)(=O)N2CCN(c3ccc([N+](=O)[O-])cc3)CC2)cc1 (stereo not drawn),inactive: -5.14%
3,CP(=O)(NC(=O)Nc1ccccc1)Oc1ccccc1 (stereo not drawn),inactive: -2.85%
4,CCOP(C)(=S)SCC(=O)NC(C)C(=O)O (stereo not drawn),inactive: 6.12%
5,CN(C)CCS,inactive: -19.3%
6,O=[N+]([O-])c1cc([N+](=O)[O-])c(O)c([N+](=O)[O-])c1.c1ccc(Oc2ccncc2)cc1,inactive: -6.39%
7,CCOC(=O)c1ccc(NP(C)(=O)Oc2ccc(OC)cc2)cc1 (stereo not drawn),inactive: 7.38%
8,CP(=O)(Nc1ccccn1)Oc1ccc(Cl)cc1 (stereo not drawn),inactive: 2.58%
9,CCN(CC)CCCOC(=O)C(O)(c1ccccc1)c1ccccc1,inactive: -9.41%
10,COc1ccccc1-c1ccccn1.O=[N+]([O-])c1cc([N+](=O)[O-])c(O)c([N+](=O)[O-])c1,inactive: -6.35%
11,O=[N+]([O-])[O-].[NH4+],inactive: 11.7%
12,O=[N+]([O-])c1cc([N+](=O)[O-])c(Nc2cccnc2)c([N+](=O)[O-])c1,inactive: 9.35%
13,Cc1cccc(C)c1OP(C)(N)=O (stereo not drawn),inactive: -0.511%
14,CC(C)(C)c1ccc(OP(C)(=O)Nc2ccc(SC(F)(F)F)cc2)cc1 (stereo not drawn),inactive: -5.77%
15,O=[N+]([O-])c1ccc2c(c1)C=Nc1ccccc1O2,inactive: -10.6%
16,CCOC(=O)c1ccc(NP(C)(=O)Oc2ccccc2)cc1 (stereo not drawn),inactive: -3.68%
17,Cc1ccc(NP(C)(=O)Oc2ccccc2)c(C)c1 (stereo not drawn),inactive: 0.901%
18,COc1ccccc1OP(C)(=O)Nc1ccc(C)cc1 (stereo not drawn),inactive: -3.29%
19,COc1ccc(OP(C)(=O)Nc2cccc(F)c2)cc1 (stereo not drawn),inactive: 4.28%
20,COc1ccccc1OP(C)(=O)Nc1cc(Cl)ccc1C (stereo not drawn),inactive: -2.95%
21,Cc1cc(C)cc(OP(C)(N)=O)c1 (stereo not drawn),inactive: -5.79%
